Test results from patent US8304547B2, “Azolecarboxamide compound or salt thereof” (Astellas Pharma Inc., priority 2007, dated 2012).

Amino acid sequences for entries named in this document (tags omitted). Residues count along the entry.
UniProt P04629, 33-796 limits assumed: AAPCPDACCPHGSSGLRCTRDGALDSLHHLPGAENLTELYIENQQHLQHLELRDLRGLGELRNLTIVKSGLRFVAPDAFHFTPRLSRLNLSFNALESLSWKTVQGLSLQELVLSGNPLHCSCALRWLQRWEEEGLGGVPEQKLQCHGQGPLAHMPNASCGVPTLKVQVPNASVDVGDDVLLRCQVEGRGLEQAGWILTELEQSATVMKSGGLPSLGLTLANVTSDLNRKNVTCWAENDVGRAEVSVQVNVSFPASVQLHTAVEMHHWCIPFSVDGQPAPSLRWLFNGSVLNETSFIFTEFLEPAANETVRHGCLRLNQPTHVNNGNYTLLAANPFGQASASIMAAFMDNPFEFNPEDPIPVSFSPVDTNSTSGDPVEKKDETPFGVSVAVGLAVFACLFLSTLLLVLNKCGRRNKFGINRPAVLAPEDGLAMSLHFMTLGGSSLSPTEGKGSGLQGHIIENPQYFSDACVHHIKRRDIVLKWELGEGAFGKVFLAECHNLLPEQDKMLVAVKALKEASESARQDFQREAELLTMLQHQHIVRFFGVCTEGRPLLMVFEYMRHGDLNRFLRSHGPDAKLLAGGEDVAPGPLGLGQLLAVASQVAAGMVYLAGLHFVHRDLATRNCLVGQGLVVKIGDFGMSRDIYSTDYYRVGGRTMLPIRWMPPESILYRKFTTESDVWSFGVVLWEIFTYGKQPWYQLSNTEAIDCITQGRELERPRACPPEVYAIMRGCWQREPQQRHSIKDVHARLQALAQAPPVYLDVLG

Legend:
human trkA receptor = human trkA receptor (Homo sapiens, UniProt P04629); assay: trkA receptor inhibitory activity using a cell expressing a nerve growth factor receptor (NGF-dependent increase of calcium concentration in cells, FLIPR); conditions: HEK293 cells stably expressing human trkA receptor, NGF-stimulated change in Ca concentration in cells
Experimental: Experiment to Measure trkA Receptor Inhibitory Activity Using a Cell Expressing a Nerve Growth Factor Receptor (trkA Receptor)
The trkA receptor inhibitory activity was measured by using the increase in a ligand-dependent calcium concentration in cells as an index. HEK293 cells (American Type Culture Collection) that stably expressed a human trkA receptor were dispensed onto a 96-well poly-D-lysine-coated plate (Product Name: Biocoat, PDL96W black/clear, by Nippon Becton Dickinson) to a 2×10^4 cells/well on the day before the experiment, and incubated overnight at 37° C. under 5% carbon dioxide (CO2) in a culture medium containing 10% fetal bovine serum (FBS) (Product Name: DMEM, Invitrogen Corporation). […] The difference between a maximum value and a minimum value in the change of Ca concentrations in cells was determined, and kept as measurement data. […]

[1] = test system: rat having urinary frequency caused by cyclophosphamide (CPA); assay: Action on a rat having urinary frequency caused by cyclophosphamide (CPA); conditions: CPA-treated Wistar female rat; oral dose 3 mg/kg; evaluation period 5-65 minutes after administration; value before administration = 100%; tested form: dihydrochloride
Experimental: Action of the Compound on a Rat Having Urinary Frequency Caused by Cyclophosphamide (CPA)
CPA (150 mg/5 ml/kg) was intraperitoneally administered to a Wistar female rat (Charles River Laboratories), and after 2 days, the experiment was carried out. It was forced to be orally administered with distilled water (30 ml/kg), and then confined in a metabolic cage, and urine weight and urination frequency were continuously measured for 1 hour. 3 or 10 mg/5 ml/kg of the compound (0.5% methylcellulose solution), or 5 ml/kg of a solvent (0.5% methylcellulose solution) was orally administered, and after 5 to 30 minutes, urination functions were measured after water-loading in the same manner as described above. A total urine weight was divided by the total urination frequency to determine an effective bladder capacity. With the value before administration of the compound being set at 100%, a rate of change in the effective bladder capacity caused by administration of the compound was determined.
In this test, at 2 days after CPA treatment, the effective bladder capacity had decreased (about 0.5 ml), indicating urinary frequency.

SMILES: COCCN(C)c1nc(C(=O)Nc2ccc(OC)cc2C(=O)Nc2cccnc2)cs1
- IC50 (human trkA receptor; tested form: dihydrochloride): 3.1 nM
- Rate in cange of effective bladder capacity [1]: 149%

SMILES: COCCN(C)c1nc(C(=O)Nc2ccsc2C(=O)Nc2cccnc2)cs1
- IC50 (human trkA receptor): 4.9 nM
